For experiment [1], the species on record is Homo sapiens. Kind of experiment: Selectivity for human NET over human DAT.
Experiment [2] is filed under the species Homo sapiens. Kind of experiment: Selectivity for human NET over human ganglionic alpha3beta4alpha5beta2 nAChR.
For experiment [3], the species on record is Homo sapiens. In words: Selectivity ratio for human DAT over human SERT.
The species entered for experiment [4] is Homo sapiens. In words: Selectivity ratio for human DAT over human NET.
For experiment [5], the species on record is Homo sapiens. Kind of experiment: Selectivity for human DAT over human ganglionic alpha3beta4alpha5beta2 nAChR.

Take `COC(=O)[C@@H]1[C@H]2CC[C@@H](C[C@H]1c1ccc(C)c(F)c1)N2`: the Ratio IC50 in the experiment listed under Homo sapiens [1] was 14; in the experiment listed under Homo sapiens [2], 3500.
In the case of `Cc1ccc([C@H]2C[C@@H]3CC[C@H]([C@H]2C(=O)OC(C)C)N3C)cc1`, the Ratio IC50 in the experiment filed under Homo sapiens [3] is above 60; in the experiment filed under Homo sapiens [4], above 60; in the experiment filed under Homo sapiens [5] it was above 2000.

For the origin of these results see ChEMBL document CHEMBL1811897, “Nicotinic acetylcholine receptor efficacy and pharmacological properties of 3-(substituted phenyl)-2β-substituted tropanes” (J Med Chem, 2010).
